From patent publication US20200030278A1, “PHARMACEUTICAL COMPOSITIONS OF METAP-2 INHIBITORS” (Zafgen, Inc., priority 2017, published 2020) come the findings set out here.

Amino acid sequences for entries named in this document (tags omitted). A change or cut given only in a name is not applied to a line headed by its entry.
UniProt P38062: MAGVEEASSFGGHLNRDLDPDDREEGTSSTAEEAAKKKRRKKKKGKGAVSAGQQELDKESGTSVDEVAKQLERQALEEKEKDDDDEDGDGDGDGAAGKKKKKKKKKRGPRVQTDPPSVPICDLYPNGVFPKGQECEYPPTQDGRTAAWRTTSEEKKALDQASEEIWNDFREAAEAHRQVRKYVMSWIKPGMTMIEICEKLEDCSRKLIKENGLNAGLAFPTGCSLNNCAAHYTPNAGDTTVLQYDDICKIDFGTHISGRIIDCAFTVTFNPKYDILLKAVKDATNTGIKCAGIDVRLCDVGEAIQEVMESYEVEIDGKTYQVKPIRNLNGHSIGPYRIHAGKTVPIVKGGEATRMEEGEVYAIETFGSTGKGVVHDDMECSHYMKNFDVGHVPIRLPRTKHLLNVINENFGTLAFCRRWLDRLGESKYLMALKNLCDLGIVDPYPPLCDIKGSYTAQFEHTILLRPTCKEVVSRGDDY

“Also recorded” adds a separate entry of the source. Like-named read-outs stand apart in the source and are kept apart here.

One data set relates to plasma proteins. Briefly: Plasma protein binding, summary over species. The class given is in vitro ADME.
Data set [1] is described as follows: Protein binding in dog plasma (dialysis). The class given is in vitro ADME. The settings on record: read-out: % Bound (Mean) (converted).
Data set [2] in a line: Pharmacokinetics after subcutaneous administration in humans. The class given is in vivo, Human. From the text: The pharmacokinetic profiles following intravenous administration of beloranib or Compound A reflect differences in how each compound is distributed and cleared that are independent of pharmaceutical properties that affect absorption from subcutaneously administered compound. In rat and dog studies with intravenous administration, Compound A has a lower Vdss and a higher CL than beloranib, as shown in Table 2. Although Compound A has not been administered to humans intravenously, the rapid absorption profile observed with subcutaneous dosing permits estimation of Vdss and CL in humans for comparison with intravenous PK of beloranib, as shown in Table 3. Similar to non-clinical species, Compound A has a lower Vdss and a higher CL than beloranib. Thus, similar differences in the pharmacokinetic properties of Compound A and beloranib have been observed in non-clinical toxicology species and humans.
Assessment of differences in pharmacokinetics following subcutaneous administration reflect both differences in the pharmacokinetic properties of the compounds and differences in pharmaceutical factors that affect absorption of the formulations from the injection sites. […] In all cases, Tmax was marked shorter and Cmax was much higher for Compound A, while AUC was similar (note: results for dog have not been normalized for dose).

Data set [3] in a line: Protein binding in human plasma (dialysis). It counts as in vitro ADME. The settings on record: read-out: % Bound (Mean) (converted).
Data set [4] in a line: Toxicology study in the rat, s.c. Q3D for 28 days. The settings on record: rats, ≥2 mg/kg s.c. Q3D, 4 weeks. The class given is in vivo, Sprague Dawley rats. The method, then:
Male and female Sprague Dawley rats 9-10 weeks of age (Envigo RMS, Inc., Indianapolis, Ind. or Orient Bio Inc., Gyeonggi-do, South Korea) were individually housed at the testing facility. Rats (n=15/group) received Compound A (2, 6, 25 mg/kg, or vehicle) Q3D for 28 days. […]. Animals were allocated to treatment groups based on body weight, and body weight and food consumption were recorded weekly. […] At necropsy, macroscopic pathologic findings were recorded, sperm motility and morphology were determined, selected organs were weighed, and selected tissues were collected for microscopic examination.

A short description of data set [5]: Tissue distribution of radiolabeled compounds in rats after subcutaneous administration. The class given is in vivo. From the text: Beloranib was extensively (>95%) bound to plasma proteins in blood from all non-clinical species tested and humans. However, Compound A was markedly less bound to plasma proteins (40-70% in rat and dog and 25-35% in human) and binding tended to decrease with increasing concentration, as shown in Table 6. The higher unbound fraction of Compound A may have contributed to the more rapid clearance of Compound A in pharmacokinetic studies, and to differences in tissue distribution. The tissue distribution of beloranib and Compound A was investigated in rats using radiolabeled compounds. Data from a long-term whole body autoradioluminography (WBAL) study with beloranib dosed subcutaneously at 1 mg/kg was compared with data from a short-term tissue dissection (TD) study with Compound A dosed subcutaneously at 6 mg/kg. For this assessment, the results from the Compound A study were normalized (assuming direct linearity) to a 1 mg/kg dose.

In another data set the target is MetAP-2 (Rattus norvegicus, UniProt P38062). The settings on record: rat model.

In the case of `CO[C@@H]1[C@H](OC(=O)/C=C/c2ccc(OCCN(C)C)cc2)CC[C@]2(CO2)[C@H]1[C@@]1(C)O[C@@H]1CC=C(C)C` [beloranib, reference compound], the fraction bound to plasma proteins in the data set with plasma proteins (human, blood from all non-clinical species tested and humans, read-out: bound to plasma proteins) was less than 0.05; in the data set with plasma proteins (summary, species not specified, read-out: Plasma protein binding (converted)) it was 0.05. The fraction unbound at 60 nM in data set [1] (60 nM) was 0.052. The fraction unbound at 120 nM in data set [1] (120 nM) is 0.0522. Further, the fraction unbound at 240 nM in data set [1] (240 nM) was 0.0466; in data set [3] (240 nM), 0.048. In addition, the fraction unbound in data set [1] (All concentrations) is 0.051; in data set [3] (All concentrations) it was 0.0508. The “plasma concentration relative to Cmax” value in data set [2] (2 mg subcutaneous dose, 24 hours after dosing) is listed as “approximately 5.6 % of Cmax”; in data set [2] (2 mg subcutaneous dose, four hours after dosing) it was “approximately 50 % of Cmax”. The fraction unbound at 30 nM in data set [3] (30 nM) was 0.0508. Besides, the fraction unbound at 480 nM in data set [3] (480 nM) was 0.0472. The fraction unbound at 1000 nM in data set [3] (1000 nM) was 0.0536. Moreover, the “Histopathology, target organs: finding, grade” value in data set [4] is listed as “Spleen: decreased cellularity,; also recorded: Bone marrow: decreased; also recorded: Thymic atrophy: lymphoid; also recorded: Testes: germ cell”. In data set [5] (radiolabeled compounds, tissues generally (e.g. testis)), the “Peak and residual radioactivity in tissues, beloranib relative to dose-normalized Compound A” value is reported as 2-5 fold.

In the case of `CO[C@@H]1[C@H](OC(=O)N2CC(CCN3CCOCC3)C2)CC[C@]2(CO2)[C@H]1[C@@]1(C)O[C@@H]1CC=C(C)C` [Compound A], the “MetAP-2 binding in target tissues” value at MetAP-2 is listed as “bound MetAP-2 effectively”. Also, the “plasma concentration relative to Cmax” value in data set [2] (2.4 mg subcutaneous dose, four hours after dosing) was “less than 2 % of the Cmax”. For the same compound, in data set [5], the “duration of high levels of exposure to the tissues relative to beloranib” value was “much shorter”; the “radioactivity in kidney and liver relative to beloranib” value is recorded as “similar”. Also, the “radioactivity in fat and bone relative to beloranib” value in data set [5] (dose-normalized) was “higher”.
